The target in the assay is T1, Poly [ADP-ribose] polymerase tankyrase-1 (Homo sapiens) (UniProt O95271).
T1 sequence (whole entry): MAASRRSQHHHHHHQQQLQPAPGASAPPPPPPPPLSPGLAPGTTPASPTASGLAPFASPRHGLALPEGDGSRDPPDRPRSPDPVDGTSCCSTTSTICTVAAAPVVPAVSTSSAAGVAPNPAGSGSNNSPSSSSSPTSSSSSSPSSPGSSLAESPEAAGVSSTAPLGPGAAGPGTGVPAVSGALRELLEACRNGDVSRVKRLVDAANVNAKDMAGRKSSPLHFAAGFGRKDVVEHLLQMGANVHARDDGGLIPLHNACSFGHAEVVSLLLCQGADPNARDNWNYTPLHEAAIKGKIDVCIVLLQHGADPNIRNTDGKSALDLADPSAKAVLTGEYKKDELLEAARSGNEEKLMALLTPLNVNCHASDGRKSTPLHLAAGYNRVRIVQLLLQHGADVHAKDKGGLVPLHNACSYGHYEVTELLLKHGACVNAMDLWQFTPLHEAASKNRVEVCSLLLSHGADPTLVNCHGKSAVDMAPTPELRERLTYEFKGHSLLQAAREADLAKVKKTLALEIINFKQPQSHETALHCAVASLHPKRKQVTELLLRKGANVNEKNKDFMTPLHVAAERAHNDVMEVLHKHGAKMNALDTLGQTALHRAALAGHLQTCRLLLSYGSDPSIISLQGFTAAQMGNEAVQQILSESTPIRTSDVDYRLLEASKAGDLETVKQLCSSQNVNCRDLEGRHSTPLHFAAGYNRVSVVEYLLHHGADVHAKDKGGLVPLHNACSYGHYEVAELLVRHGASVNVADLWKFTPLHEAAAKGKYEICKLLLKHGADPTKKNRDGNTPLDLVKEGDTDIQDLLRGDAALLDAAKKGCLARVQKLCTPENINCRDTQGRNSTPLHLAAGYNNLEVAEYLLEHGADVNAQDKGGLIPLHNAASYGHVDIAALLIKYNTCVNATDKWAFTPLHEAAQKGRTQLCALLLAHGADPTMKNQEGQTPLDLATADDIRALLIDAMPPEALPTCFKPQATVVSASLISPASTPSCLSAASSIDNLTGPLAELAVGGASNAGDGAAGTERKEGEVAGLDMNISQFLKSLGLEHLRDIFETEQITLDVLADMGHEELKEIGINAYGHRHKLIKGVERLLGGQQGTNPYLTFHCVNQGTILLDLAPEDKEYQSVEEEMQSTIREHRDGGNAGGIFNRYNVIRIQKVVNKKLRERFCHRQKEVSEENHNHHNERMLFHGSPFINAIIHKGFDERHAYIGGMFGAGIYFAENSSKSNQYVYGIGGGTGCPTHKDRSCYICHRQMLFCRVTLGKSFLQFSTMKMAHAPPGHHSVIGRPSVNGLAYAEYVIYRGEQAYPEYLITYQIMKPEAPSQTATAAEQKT
Kind of assay: Potency index, ratio of XAV-939 IC50 to test compound IC50 for inhibition of TNKS1 (unknown origin).

This is an account of results in ChEMBL document CHEMBL5331077, “Combining pharmacophore models derived from DNA-encoded chemical libraries with structure-based exploration to predict Tankyrase 1 inhibitors” (Eur J Med Chem, 2023).

The structures appear in SMILES notation.

Consider `CNC(=O)[C@H](CNC(=O)CCn1c(=O)[nH]c(=O)c2ccccc21)NC(=O)c1cnc2ccccc2c1`, for which the Ratio IC50 amounted to 5.6.
